Test results as given in PubChem BioAssay AID952 (NMMLSC, 2007).
This is a selection; strong and weak results do not stand in their true shares. Some results for these compounds are left out of this collection, so the calls shown say nothing about other tests. Active and inactive are the calls of the source. No stated cut-off is given here; in the data, active means inhibition above about 40%.

Protein sequences, listed by entry. Tags and fused reporters are not part of them.
UniProt Q92843, whole entry: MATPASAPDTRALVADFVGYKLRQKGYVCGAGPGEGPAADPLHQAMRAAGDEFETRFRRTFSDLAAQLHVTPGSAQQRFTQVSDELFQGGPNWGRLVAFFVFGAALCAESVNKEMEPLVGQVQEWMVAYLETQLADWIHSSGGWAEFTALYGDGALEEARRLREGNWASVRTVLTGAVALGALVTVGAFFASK

Each compound was assayed against Bcl-2-like protein 2 (Homo sapiens) (UniProt Q92843) (assay: Bcl-W/Bim complex disruptors – biochemical, multiplexed, bead-based flow cytometry, primary screen (AID 952;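 further: 0% = bound tracer without compound and 100% = peptide blocker; higher means less fluorescent Bim peptide bound to Bcl-W beads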)). Conditions: Bim peptide-Bcl-W binding, at 10 µM, stronger effect = higher value.

Row | SMILES | inhibition
1 | CCN1CCCC(OC(=O)C2(O)c3ccccc3C=Cc3ccccc32)C1 (centres undefined) | inactive: -5%
2 | C=CCN1CCN(CCOC(=O)C(O)(c2ccccc2)c2ccccc2)CC1 | inactive: 0%
3 | Cc1ccccc1C(=O)NCC1(N2CCCCC2)CCCCC1 | inactive: -2%
4 | CN(C)C1CCCC1OC(=O)C(O)(c1ccccc1)c1ccccc1 (centres undefined) | inactive: -3%
5 | CC(C)N1C(=O)CC2(CCN(CCOC(=O)C(O)(c3ccccc3)c3ccccc3)CC2)C1=O | inactive: 1%
6 | O=C(NCC1(N2CCCCC2)CCCCC1)c1cc([N+](=O)[O-])ccc1Cl | inactive: 13%
7 | CN(C)c1cccc(C(=O)NCC2(N(C)C)CCCCC2)c1 | inactive: -3%
8 | O=C(OC1CN2CCC1CC2)C(CO)(c1ccccc1)c1ccccc1 (centres undefined) | inactive: 0%
9 | COc1cccc(C(=O)NCC2(N3CCCCC3)CCCCC2)c1 | inactive: 0%
